Measured values from US10995099B2, “Compounds and their uses as ACC inhibitors” (NANJING RUIJIE PHARMATECH CO., LTD., priority 2017, dated 2021).
Where two headings read alike, the source gives them in different places.

Sequences of proteins named here, by UniProt entry; tags and fusion partners are left off.
UniProt O00763, whole entry: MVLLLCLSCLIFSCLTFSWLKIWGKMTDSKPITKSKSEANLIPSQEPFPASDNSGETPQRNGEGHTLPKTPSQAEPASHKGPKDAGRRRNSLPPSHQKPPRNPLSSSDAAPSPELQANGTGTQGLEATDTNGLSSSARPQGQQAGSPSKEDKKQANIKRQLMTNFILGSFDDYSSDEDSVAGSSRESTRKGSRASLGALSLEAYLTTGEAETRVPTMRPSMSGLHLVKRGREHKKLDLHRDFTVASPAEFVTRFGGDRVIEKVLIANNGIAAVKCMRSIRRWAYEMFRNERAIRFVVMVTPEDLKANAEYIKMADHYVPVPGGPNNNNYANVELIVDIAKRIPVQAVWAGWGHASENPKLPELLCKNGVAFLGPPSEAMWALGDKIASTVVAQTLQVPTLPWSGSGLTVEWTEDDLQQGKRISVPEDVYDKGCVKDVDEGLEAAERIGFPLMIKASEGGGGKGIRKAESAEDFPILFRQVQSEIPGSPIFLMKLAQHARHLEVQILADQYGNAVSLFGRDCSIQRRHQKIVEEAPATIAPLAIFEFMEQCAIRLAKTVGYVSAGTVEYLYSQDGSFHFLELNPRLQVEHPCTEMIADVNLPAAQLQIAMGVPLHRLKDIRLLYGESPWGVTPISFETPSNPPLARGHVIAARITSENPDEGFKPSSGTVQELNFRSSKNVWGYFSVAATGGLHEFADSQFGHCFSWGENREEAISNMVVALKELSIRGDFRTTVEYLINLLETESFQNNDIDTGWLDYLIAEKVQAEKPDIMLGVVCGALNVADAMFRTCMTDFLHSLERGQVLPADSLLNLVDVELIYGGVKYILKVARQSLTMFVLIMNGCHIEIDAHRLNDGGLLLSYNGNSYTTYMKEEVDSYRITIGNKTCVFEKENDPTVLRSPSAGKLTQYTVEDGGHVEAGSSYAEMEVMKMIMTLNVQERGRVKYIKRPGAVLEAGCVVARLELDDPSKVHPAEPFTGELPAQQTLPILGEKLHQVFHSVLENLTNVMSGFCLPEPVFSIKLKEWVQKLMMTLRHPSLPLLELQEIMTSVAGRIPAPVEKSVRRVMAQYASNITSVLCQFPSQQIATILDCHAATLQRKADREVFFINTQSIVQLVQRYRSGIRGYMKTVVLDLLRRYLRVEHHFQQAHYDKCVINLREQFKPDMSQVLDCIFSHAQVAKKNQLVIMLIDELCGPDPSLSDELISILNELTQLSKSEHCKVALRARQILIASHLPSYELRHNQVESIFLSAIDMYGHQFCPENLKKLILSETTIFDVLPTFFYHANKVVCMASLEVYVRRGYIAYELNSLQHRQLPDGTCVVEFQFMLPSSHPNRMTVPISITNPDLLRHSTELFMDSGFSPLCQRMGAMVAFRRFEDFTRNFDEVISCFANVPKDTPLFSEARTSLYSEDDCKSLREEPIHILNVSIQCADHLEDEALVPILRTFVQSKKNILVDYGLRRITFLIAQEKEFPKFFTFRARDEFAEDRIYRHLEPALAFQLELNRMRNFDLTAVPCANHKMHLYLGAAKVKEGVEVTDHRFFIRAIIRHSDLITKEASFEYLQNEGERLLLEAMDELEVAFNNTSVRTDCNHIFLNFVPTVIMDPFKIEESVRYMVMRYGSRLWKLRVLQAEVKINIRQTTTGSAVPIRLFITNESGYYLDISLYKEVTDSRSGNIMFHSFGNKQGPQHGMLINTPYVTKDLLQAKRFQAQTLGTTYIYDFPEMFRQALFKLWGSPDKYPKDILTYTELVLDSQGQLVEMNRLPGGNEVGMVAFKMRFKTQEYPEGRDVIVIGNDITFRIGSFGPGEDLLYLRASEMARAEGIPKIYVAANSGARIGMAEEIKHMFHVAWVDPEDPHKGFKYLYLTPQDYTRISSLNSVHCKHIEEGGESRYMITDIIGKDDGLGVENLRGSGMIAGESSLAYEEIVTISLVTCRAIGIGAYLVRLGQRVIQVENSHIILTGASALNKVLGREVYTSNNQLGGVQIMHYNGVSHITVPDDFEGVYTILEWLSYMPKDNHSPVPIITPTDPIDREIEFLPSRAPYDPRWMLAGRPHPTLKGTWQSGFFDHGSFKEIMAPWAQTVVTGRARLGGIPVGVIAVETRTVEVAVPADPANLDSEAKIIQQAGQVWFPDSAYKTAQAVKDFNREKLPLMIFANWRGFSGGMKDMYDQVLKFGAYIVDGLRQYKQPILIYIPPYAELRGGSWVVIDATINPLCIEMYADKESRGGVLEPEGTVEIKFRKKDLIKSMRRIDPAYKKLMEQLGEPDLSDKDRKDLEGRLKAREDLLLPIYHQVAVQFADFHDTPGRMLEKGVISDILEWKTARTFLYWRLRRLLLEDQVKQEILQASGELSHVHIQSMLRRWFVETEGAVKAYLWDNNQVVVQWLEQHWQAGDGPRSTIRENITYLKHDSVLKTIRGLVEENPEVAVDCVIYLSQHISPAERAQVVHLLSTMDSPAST

Experiments:
ACC2 = ACC2 (Homo sapiens (Human), UniProt O00763); assay: In vitro ACC inhibition assay (ADP-Glo), ACC2; format: biochemical; conditions: read-out: IC50 (μM) ND630/RJ-cmps(%); ND630 versus RJ compounds; isoform not given
HepG2 = assay: EC50 in HepG2; format: cell-based
[1] = read-out: EC50 (μM) HepG2, HepG2
[2] = read-out: EC50 (μM) ND630/RJ-cmps(%), ND630 versus RJ compounds

Structure (SMILES)	IC50 (ACC2)	EC50 (HepG2; [1])	EC50 (HepG2; [2])
COc1ccccc1[C@H](Cn1c(=O)n(C2(C(=O)O)CC2)c(=O)c2c(C)csc21)OC1CCOCC1 [Example 17]	0.005 to 0.01 µM	–	–
COc1ccccc1C(Cn1c(=O)n(C2(C(=O)O)CC2)c(=O)c2c(C)c(C(F)(F)F)sc21)OC1CCOCC1 (centres unmarked)	0.005 to 0.01 µM	–	–
COc1ccccc1C(Cn1c(=O)n(C2(CC(N)=O)CC2)c(=O)c2c(C)c(-c3ncco3)sc21)OC1CCOCC1 (centres unmarked)	0.005 to 0.01 µM	< 0.01 µM	> 1 µM
COc1ccccc1C(Cn1c(=O)n(C2(C(=O)O)CC2)c(=O)c2c(C)c(C#N)sc21)OC1CCOCC1 (centres unmarked)	0.005 to 0.01 µM	> 1 µM	0.01 to 0.1 µM
COc1ccccc1C(Cn1c(=O)n(C2(CC(=O)N3CCN(C)CC3)CC2)c(=O)c2c(C)c(Br)sc21)OC1CCOCC1 (centres unmarked)	0.003 to 0.005 µM	–	0.1 to 1 µM
CNC(=O)c1sc2c(c1C)c(=O)n(C1(C(=O)O)CC1)c(=O)n2C[C@H](OC1CCOCC1)c1ccccc1OC	0.005 to 0.01 µM	–	0.1 to 1 µM
COc1ccccc1C(Cn1c(=O)n(C2(C(=O)C(=O)O)CC2)c(=O)c2c(C)c(Br)sc21)OC1CCOCC1 (centres unmarked)	0.005 to 0.01 µM	0.1 to 1 µM	0.01 to 0.1 µM
COc1ccccc1[C@H](Cn1c(=O)n(C2(C(=O)O)CC2)c(=O)c2c(C)c(C(=O)N(C)C)sc21)OC1CCOCC1	0.005 to 0.01 µM	–	0.1 to 1 µM
CNC(=O)CC1(n2c(=O)c3c(C)c(-c4ncco4)sc3n(CC(OC3CCOCC3)c3ccccc3OC)c2=O)CC1 (centres unmarked)	0.005 to 0.01 µM	0.01 to 0.1 µM	> 1 µM
